# Source: PubChem BioAssay AID1136 (Sanford-Burnham Center for Chemical Genomics, 2008)
# Protein sequences, listed by entry. Tags and fused reporters are not part of them.
# UniProt P05186, whole entry: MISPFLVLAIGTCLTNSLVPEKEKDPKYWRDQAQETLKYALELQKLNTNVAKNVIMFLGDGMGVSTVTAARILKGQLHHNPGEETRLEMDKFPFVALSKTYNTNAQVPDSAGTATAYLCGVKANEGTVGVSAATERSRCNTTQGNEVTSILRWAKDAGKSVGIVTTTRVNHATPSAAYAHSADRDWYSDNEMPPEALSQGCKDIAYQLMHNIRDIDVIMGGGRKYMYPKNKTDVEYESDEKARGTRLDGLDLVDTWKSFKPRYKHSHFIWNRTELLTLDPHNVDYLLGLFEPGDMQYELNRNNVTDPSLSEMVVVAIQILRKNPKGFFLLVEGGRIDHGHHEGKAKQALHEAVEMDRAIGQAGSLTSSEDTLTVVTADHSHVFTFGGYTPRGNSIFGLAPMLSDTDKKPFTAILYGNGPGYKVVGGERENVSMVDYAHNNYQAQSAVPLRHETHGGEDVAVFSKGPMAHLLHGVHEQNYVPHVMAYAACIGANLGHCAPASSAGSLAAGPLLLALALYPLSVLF
# This is one part of the list. The source made the active and inactive calls.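 How the source made its calls: active means activation factor at least 2 at 20 µM; inactive means the rest.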
# Biological target: Alkaline phosphatase, tissue-nonspecific isozyme (Homo sapiens) (UniProt P05186)
# Experiment: activation of human TNAP, high DEA acceptor – biochemical, luminescence, uHTS, primary screen (AID 1136)
# Conditions: purified TNAP, CDP-star luminescence, 1 M DEA, 30 min, at 20 µM; active compounds read high, 0 = EDTA background, 1 = DMSO-only activity
row,Structure (SMILES),activation factor
1,COc1ccc(NC2CCN(CCc3ccccc3)CC2)c(OC)c1,inactive
2,O=C(OC1CN2CCC1CC2)C1c2ccccc2Oc2ccccc21 (stereo not given),inactive
3,CCOC(=O)N1CCC(Nc2ccc(OC)cc2)CC1,inactive
4,O=C(NCC1(N2CCOCC2)CCCCC1)c1cc2ccccc2o1,inactive
5,COc1ccc(C(=O)NCC2(N3CCCCC3)CCCCC2)c(OC)c1OC,inactive: 1.1
6,CC(C)c1ccc(NC2CCN(C(=O)OC(C)(C)C)CC2)cc1,inactive: 1.1
7,CN(C)c1cccc(C(=O)NCC2(N3CCCCC3)CCCCC2)c1,inactive
8,COc1ccc(CN(CCCl)CCCl)cc1Cl,inactive: 1.1
9,O=C(NCC1(N2CCOCC2)CCCCC1)c1cc(=O)[nH]c2ccccc12,inactive
10,COc1ccc(NC2CCN(C(=O)OC(C)(C)C)CC2)cc1,inactive
11,CN1CCN(CCOC(=O)C(O)(c2ccccc2)c2ccccc2)CC1,inactive: 1.1
12,N#CC1(Nc2ccccc2)CCN(CCc2ccccc2)CC1,inactive: 1.1
13,O=C(NCC1(N2CCCCC2)CCCCC1)c1cccc([N+](=O)[O-])c1,inactive
14,c1ccc(CN2CCC(Nc3ccccc3)CC2)cc1,inactive
15,N#Cc1ccc(C(=O)NCC2(N3CCCCC3)CCCCC2)cc1,inactive
16,O=C(OC1CN2CCC1CC2)C1c2ccccc2C=Cc2ccccc21 (stereo not given),inactive: 1.1
17,N/C(=N\O)c1c(N)no[n+]1[O-],inactive: 1.1
18,COc1ccc(C(=O)NCC2(N3CCOCC3)CCCCC2)cc1OC,inactive
19,COc1cc(OC)cc(C(=O)NCC2(N3CCOCC3)CCCCC2)c1,inactive
20,CCC(CO)(C(=O)OC1CN2CCC1CC2)c1ccccc1 (stereo not given),inactive
21,CC(C)(C)OC(=O)N1CCC(Nc2ccccc2)CC1,inactive
22,CCOc1ncccc1C(=O)NCC1(N2CCOCC2)CCCCC1,inactive: 1.1
23,CN(C)c1ccc(C(=O)NCC2(N3CCCCC3)CCCCC2)cc1,inactive: 1.1
24,CCN1CCC(Nc2cccc(F)c2)CC1,inactive
25,Fc1ccccc1NC1CCN(Cc2ccccc2)CC1,inactive: 1.1
